One assay concerns the target Nociceptin receptor (Homo sapiens, UniProt P41146). As to the kind of experiment: Displacement of [3H]NOP from human NOP receptors expressed in HEK293 cells. The class given is cell-based.
A further assay addresses Mu-type opioid receptor (Homo sapiens, UniProt P35372). As to the kind of experiment: Displacement of [3H]naloxone from human mu opioid receptor expressed in BHK cells.

Take `O=C1NCN(c2ccccc2)C12CCN(C1CCCCC1(O)c1ccccc1)CC2` (configuration not stated): the figures for the IC50 on Nociceptin receptor and on Mu-type opioid receptor were 15 µM and 2.7 µM, respectively.
